Measured values taken from patent US20260216168A1, “MODULATION OF PD-1 SIGNALING FOR TREATMENT OF DISEASES” (Wuhan University, priority 2023, published 2026).

System: MC38 cells
Test: IL-2 and anti-PD-1 therapy in March5+/f and March5+/f:Vav1-Cre mice bearing MC38 tumors
Type: in vivo
Settings: IL-2 50000 IU per mouse i.p.
Method: March5^+/f and March5^+/f:Vav1-Cre mice were subcutaneously injected with MC38 cells (5×10^5). On day 5 after tumor cell inoculation, mice were intraperitoneally injected with control, IL-2 (50000 IU per mouse) or anti-PD-1 (100 μg per mouse). Tumor sizes were measured every two days by caliper from day 5. WT: March5^+/f, CHZ: March5^+/f:Vav1-Cre. […] Data were analyzed using two-way ANOVA with GraphPad Prism 8.
March5^+/f and March5^+/f:Vav1-Cre mice were subcutaneously injected with MC38 cells (5×10^5). On day 5 after tumor cell inoculation, mice were intraperitoneally injected with control, IL-2 (50000 IU per mouse) or anti-PD-1 (100 μg per mouse). Mice were sacrificed when the tumor size is bigger than 15 mm of the mean tumor diameter, tumor volume exceeded 2000 mm^3, or tumor had ulcers with diameter reached 10 mm. Statistical analysis was performed using the GraphPad Prism 8 software, n=8. Kaplan-Meier survival curves and corresponding log-rank (Mantel-Cox) tests were used to evaluate the statistical differences between groups in survival studies. […]
IL-2 and anti-PD-1 therapy in March5^+/f and March5^+/f:Vav1-Cre mice: mice were intraperitoneally injected with control, IL-2 (50000 IU per mouse, dissolved in PBS) or anti-PD-1 (100 μg per mouse, dissolved in PBS) five days after inoculation of MC38 cells. Tumor size and mouse survival were measured every two days from day 5. […]

Substance: IL-2: human IL-2 (SL Pharm), γc family cytokine
- suppression of tumor growth and overall survival, March5+/f:Vav1-Cre versus March5+/f mice: increased efficacy in suppression of tumor growth and improvement of the overall survival
